This note sets out measurements from patent US20040162467A1, “Non-invasive transudate extraction” (priority 2001, published 2004).

The nature of the series: Other analytes: transdermal collection levels versus serum levels.
Where [1] appears, read: first group of subjects (no condition given).

For the substance “Human Chorionic Gonadotropin: endogenous hormone analyte”, under setting [1], the Serum levels is recorded as 0.01-0.9 mIU/ml and the Transdermal collection levels was 0.002-0.08 mIU/ml. Besides, where the note is “second group: females pregnant”, the Serum levels was 1.5-100 mIU/ml females and the Transdermal collection levels is given as 0.15-11 mIU/ml.
